For one molecule, IC50 results are on record in ChEMBL document CHEMBL1129281, “Effect of linking bridge modifications on the antipsychotic profile of some phthalimide and isoindolinone derivatives” (J Med Chem, 1996).

Chains of the proteins cited; added tags and fusions are not shown.
UniProt P19327, whole entry: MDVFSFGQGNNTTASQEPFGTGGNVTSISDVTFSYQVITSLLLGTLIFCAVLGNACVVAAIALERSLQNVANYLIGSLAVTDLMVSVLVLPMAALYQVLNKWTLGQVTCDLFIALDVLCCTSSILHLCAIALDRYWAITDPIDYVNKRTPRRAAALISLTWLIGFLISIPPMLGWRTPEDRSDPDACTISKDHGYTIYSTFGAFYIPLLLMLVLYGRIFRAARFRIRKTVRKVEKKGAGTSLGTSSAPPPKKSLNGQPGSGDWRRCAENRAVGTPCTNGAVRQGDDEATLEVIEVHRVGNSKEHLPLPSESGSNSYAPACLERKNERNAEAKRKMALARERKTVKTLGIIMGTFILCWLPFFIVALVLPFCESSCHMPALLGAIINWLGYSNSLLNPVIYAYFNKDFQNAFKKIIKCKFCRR

In this test the target is 5-hydroxytryptamine receptor 1A (Rattus norvegicus, UniProt P19327). Description: Inhibition of [3H]8-OH-DPAT binding at serotonin 5-hydroxytryptamine 1A receptor from rat hippocampus tissue. The test is classed as tissue-based.

What is called IC50 is the concentration needed to halve the response being measured. A high value points to weaker potency in that assay. `O=C1c2ccccc2CN1C/C=C/CN1CCN(c2nsc3ccccc23)CC1`: the IC50 came to 23 nM.
